Results on one molecule are retold here after the supplement of paper PMC10037445.

What follows is the remainder of the data, with few or none of the highest values.

Experiment [1] has as its system RAW-Dual. As to the kind of experiment: IRF Lucia reporter activity, fold change vs agonist alone; higher = enhanced IRF activity. The following applies: library stock concentration (final ~1000-fold dilution): 10 mM, cytotoxicity flag (confluency mask): not cytotoxic. In a few lines: (§1)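 After 50 nL of library stock was delivered by pin tool to RAW-Dual macrophages (50,000 cells/well, DMEM, 384-well plates), a PRR agonist was added 1 h later and the plates were kept at 37 °C, 5% CO2. Twenty hours later, IRF was read from supernatant by QuantiLuc luminescence and NF-κB by QuantiBlue absorbance at 620 nm. Reporter activity is stated as fold change over agonist-alone wells. Wells with IncuCyte confluency under 70% of agonist controls in both mask sets were counted as cytotoxic.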

Experiment [2] deals with RAW-Dual. The experiment is described as follows: NF-kB SEAP reporter activity, fold change vs agonist alone; higher = enhanced NF-kB activity. The following applies: library stock concentration (final ~1000-fold dilution): 10 mM, cytotoxicity flag (confluency mask): not cytotoxic. In a few lines: as §1
Where [3] appears, read: agonist: MPLA (TLR4) 0.25 ug/mL.

Turning to `COc1cc(Br)c(C[N+]2(CCOCCC3CCC4CC3C4(C)C)CCOCC2)cc1OC` (centres undefined), the “IRF Lucia reporter activity” value in the experiment on RAW-Dual [1] (agonist: 3'3'-cGAMP (STING) 10 ug/mL) turned out to be 0.368; in the experiment on RAW-Dual [1] (agonist: LPS (TLR4) 0.1 ug/mL) it was 1.31; with RAW-Dual [1] (setting [3]) it was 2.04. Further, the “NF-kB SEAP reporter activity” value with RAW-Dual [2] (agonist: Imiquimod (TLR7) 2.5 ug/mL) was found to be 1.39; with RAW-Dual [2] (agonist: LPS (TLR4) 0.1 ug/mL), 1.01; with RAW-Dual [2] (setting [3]), 1.43; with RAW-Dual [2] (agonist: ODN 1826 (TLR9) 0.5 ug/mL) it was 0.599; with RAW-Dual [2] (agonist: Pam2CSK4 (TLR2/6) 0.1 ug/mL), 0.725; in the experiment with RAW-Dual [2] (agonist: Pam3CSK4 (TLR2/1) 0.1 ug/mL), 0.753.
